Structures are written as SMILES. This is a selection; strong and weak results do not stand in their true shares. The source made the active and inactive calls. Cut-off read from the data, not from the text of the source: active = inhibition above about 13%; inactive = the rest.

Amino acid sequences for entries named in this document (tags omitted).
UniProt Q9UBB5, whole entry, looked up: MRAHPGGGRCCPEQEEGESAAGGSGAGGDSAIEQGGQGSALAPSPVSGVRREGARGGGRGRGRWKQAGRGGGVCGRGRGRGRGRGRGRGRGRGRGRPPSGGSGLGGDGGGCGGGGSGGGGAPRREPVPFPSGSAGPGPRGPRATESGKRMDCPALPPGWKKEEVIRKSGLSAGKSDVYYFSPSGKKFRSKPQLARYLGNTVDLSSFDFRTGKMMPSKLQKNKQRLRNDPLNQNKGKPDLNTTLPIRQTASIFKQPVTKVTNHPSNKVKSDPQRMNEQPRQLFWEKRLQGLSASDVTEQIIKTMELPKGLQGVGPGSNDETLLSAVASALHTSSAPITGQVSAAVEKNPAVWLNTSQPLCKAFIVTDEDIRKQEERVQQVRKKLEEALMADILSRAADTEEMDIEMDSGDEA

For the experiment, the target named is Methyl-CpG-binding domain protein 2 (Homo sapiens) (UniProt Q9UBB5). The experiment is described as follows: inhibitors of MBD2 binding to methylated DNA, primary screen, biochemical, TR-FRET, DNA-binding domain, human (AID 686964). As to conditions: MBD2 binding to methylated oligonucleotide, at 4.4 µM, stronger effect = higher value. On the technique in general: In TR-FRET formats the signal depends on donor and acceptor labels being close together.
The term inhibition denotes the drop in the measured response relative to a control, in per cent. Turning to `CC(C)C(=O)NC(Sc1ccccc1)C(Cl)(Cl)Cl` (stereo not given), the inhibition is inactive: -4.28%. In the case of `c1nnnn1CCn1cnnn1` it was inactive: 3.06%. With `CN(C)C1(CNC(=O)c2ccc(Cl)c(S(N)(=O)=O)c2)CCCCC1`, the inhibition is inactive: 1.09%.

Consider `O=P(Nc1ccccn1)(c1ccc(Br)cc1)c1ccc(Br)cc1`, for which the inhibition was inactive: 1.16%. For the compound `Nc1ccc(CCCCOc2ccccc2)cc1`, the inhibition is inactive: -0.7%.

As for `COc1ccc(N)c([N+](=O)[O-])c1[N+](=O)[O-]`, the inhibition is inactive: -22.2%. For `C[C@H]1OP(=O)(Oc2ccccc2)[C@H](O)[C@H](O)[C@H]1N=[N+]=[N-]` (stereo not given in full), the inhibition was inactive: 1.4%. Next, `O=P(Nc1nc2ccccc2s1)(c1ccccc1)c1ccccc1`: inactive: 0.44%; `O=[As](O)(c1ccccc1)c1ccc(O)cc1`: inactive: -0.69%. Next, `O=[N+]([O-])c1ncn(CCn2cnc([N+](=O)[O-])n2)n1`: inactive: 0.56%; `CC(=O)NC(SC(=S)N(C)C)C(Cl)(Cl)Cl` (stereo not given): inactive: 0.19%. In the case of `O=C(OC1CN2CCC1CC2)c1cccc(Cl)c1` (stereo not given) it was inactive: -1.64%; in that of `Nc1ccc([As](=O)(O)c2ccc([N+](=O)[O-])cc2)cc1`, inactive: 3.42%. As for `C(Cc1nn[nH]n1)Cc1nn[nH]n1`, the inhibition is inactive: 0.03%.

On to `C/C(N)=N\P(=O)(OCc1ccccc1)OCc1ccccc1`, for which the inhibition was inactive: -7.63%.

`O=P1(N(CCCl)CCCl)OCCCS1` (stereo not given): the inhibition is inactive: 2.42%. Next, `O=C(Nc1cc([As](=O)(O)O)ccc1O)c1ccccc1`: inactive: -4.66%.

With `O=[N+]([O-])c1ncn(CCn2ncnc2[N+](=O)[O-])n1`, the inhibition was inactive: -1.81%.

In the case of `CC(C)(C)C(=O)NC(Sc1ccncn1)C(Cl)(Cl)Cl` (stereo not given), the inhibition was inactive: 1.47%. In the case of `O=C(O)CNc1ccc([As](=O)(O)O)cc1` it was inactive: 1.52%.

Turning to `O=[N+]([O-])c1cccc(NC2=NCC(CBr)S2)c1` (stereo not given), the inhibition was inactive: 8.84%. In the case of `COC(=O)C1(C)COP(=O)(Nc2ccccc2)OC1` (stereo not given) it was inactive: 1.78%; in that of `COc1ccc(C2=NCC(CBr)S2)cc1` (stereo not given), inactive: -2.54%; in that of `O=[N+]([O-])c1cc([N+](=O)[O-])c(CCNc2ccccc2)c([N+](=O)[O-])c1`, inactive: -1.87%. Next, `CCc1nc2c(n1)c1c(non1O)c1c2no[n+]1[O-]`: inactive: -14%; `Cc1ccc(NP(=O)(Oc2ccccc2)Oc2ccccc2)nc1`: inactive: -0.85%; `CC(=O)N1C2C3N(C(C)=O)C1C1N(C(C)=O)C(C(N1C(C)=O)N3C(C)=O)N2C(C)=O`: inactive: -0.67%.

`O=[N+]([O-])c1cccc2n[nH]nc12`: the inhibition was inactive: -1.52%. In the case of `CCN(/C(=N/P(=O)(N1CCOCC1)N1CCOCC1)N1CCOCC1)c1ccc(OC)cc1` it was inactive: 1.74%. With `C[N+]1=C2C=CC=CC=C2SC12C([N+](=O)[O-])=CC([N+](=O)[O-])=C[C-]2[N+](=O)[O-]` (stereo not given), the inhibition was inactive: -1.82%.

With `Nc1ccc([As](=O)(O)c2ccc(N)cc2)cc1`, the inhibition was inactive: -3.99%. In the case of `c1cc(-c2nn[nH]n2)ccc1-c1nn[nH]n1` it was inactive: 2.04%; in that of `CC1CCN(C(=O)Oc2c(Cl)cc(Cl)c3cccnc23)CC1`, inactive: -0.55%; in that of `CN(C)C(=O)OCCc1n(C)cc[n+]1C`, inactive: -3.15%. As for `CC(C)=N/N=C(\N)N[N+](=O)[O-]`, the inhibition was inactive: 0.07%. Regarding `CC(C)c1nc(Nc2ccccc2)n(P(=O)(N(C)C)N(C)C)n1`, the inhibition is inactive: -7.63%.

As to `Cc1ccc(N/C(=N/P(=O)(N2CCOCC2)N2CCOCC2)N2CCOCC2)cc1`, the inhibition was inactive: -2.34%.

`CN(C(=O)Cc1ccc(Cl)c(Cl)c1)[C@H]1CCCC[C@H]1N1CCCC1`: the inhibition is inactive: -1.77%. Next, `NC(=O)c1cc([N+](=O)[O-])cc([N+](=O)[O-])c1N`: inactive: -5.92%; `Clc1ccc(Cl)c(NC2=NCC(CBr)S2)c1` (stereo not given): inactive: 2.4%.

For `CN1CCCC(OC(=O)C(c2ccccc2)c2ccccc2)C1` (stereo not given), the inhibition was inactive: -6.3%. Next, `Cc1ccc(OP(=O)(Nc2nccs2)Oc2ccc(C)cc2)cc1`: inactive: 4.91%; `COc1ccccc1OP(=O)(Nc1ccc(C)cn1)Oc1ccccc1OC`: inactive: 3.29%; `O=C(NC(Sc1ccncn1)C(Cl)(Cl)Cl)c1ccccc1` (stereo not given): inactive: -0.42%.

`Oc1ccccc1CNc1ccccn1`: the inhibition is inactive: 3.07%. Next, `CC(C)CC(=O)NC(Sc1ccc(Cl)cc1)C(Cl)(Cl)Cl` (stereo not given): inactive: 4.52%; `Nc1cc(N)c2nonc2c1[N+](=O)[O-]`: inactive: -12.1%; `CN(C)P(=O)(N(C)C)n1c(Nc2ccccc2)nnc1-c1ccccc1`: inactive: -1.84%. Consider `O=P(Nc1nc2ccc(Cl)cc2s1)(c1ccccc1)c1ccccc1`, for which the inhibition is inactive: -1.35%. In the case of `CCCC1OP(N)(=O)OCC1CC` (stereo not given) it was inactive: -3.24%; in that of `O=C(O)c1ccccc1[As](=O)(O)O`, inactive: -2.81%.

As to `CC(=O)Nc1ccc([As](=O)(O)O)cc1`, the inhibition was inactive: 4.88%.

As to `CCn1c(=O)n(C2CCN(CC3CCCCCCC3)C[C@H]2CO)c2ccccc21` (stereo not given in full), the inhibition is inactive: -0.69%. In the case of `CN(C(=O)Cc1ccc(Cl)c(Cl)c1)[C@H]1CCCC[C@@H]1N1CCCC1` it was inactive: 0.75%; in that of `Cc1ccc(NP(=O)(Oc2ccccc2F)Oc2ccccc2F)nc1`, inactive: 1.34%; in that of `CCOP(=O)(Nc1ccccc1)OCC`, inactive: -6.04%. `Cc1cc(SC(NC(=O)c2ccc(F)cc2)C(Cl)(Cl)Cl)ncn1` (stereo not given): the inhibition was inactive: -5.57%. With `Nc1cccc2ccc([As](=O)(O)O)cc12`, the inhibition is inactive: -0.65%.

As to `CCN(N=Nc1nonc1N)c1nonc1N`, the inhibition is inactive: -5.34%. `CN(C(=O)Cc1ccccc1)C1CC[C@@]2(CCCO2)C[C@@H]1N1CCCC1` (stereo not given in full): the inhibition was inactive: -6.1%. Next, `COc1cc(C(=O)NCC2(N3CCOCC3)CCCCC2)ccc1OCC(C)C`: inactive: -0.33%; `O=[N+]([O-])c1ccc(-c2cc([N+](=O)[O-])c(O)c([N+](=O)[O-])c2)cc1`: inactive: -17.8%.

As for `C[As](=O)(O)c1cccc(C(=O)O)c1`, the inhibition was inactive: 1.18%. As to `O=[As](O)(c1ccc(O)cc1)c1ccccc1O`, the inhibition was inactive: -0.34%. In the case of `Cc1ccc(OP(=O)(Nc2ccc([N+](=O)[O-])cn2)Oc2ccc(C)cc2)cc1` it was inactive: -0.28%.

The record behind these values is PubChem BioAssay AID686964 (The Scripps Research Institute Molecular Screening Center, 2013).
